According to paper PMC3861454, “Structures of Wnt-Antagonist ZNRF3 and Its Complex with R-Spondin 1 and Implications for Signaling” (PLoS ONE, 2013):
pKd: −log10 of the molar value.

Sequences of proteins named here, by UniProt entry; tags and fusion partners are left off. Residues count along the entry.
UniProt Q5SSZ7, 53-216: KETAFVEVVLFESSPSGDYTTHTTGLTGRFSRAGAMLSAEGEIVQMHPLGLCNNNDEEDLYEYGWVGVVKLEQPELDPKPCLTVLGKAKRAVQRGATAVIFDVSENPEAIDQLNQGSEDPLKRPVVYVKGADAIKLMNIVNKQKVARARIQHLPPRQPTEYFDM

Biological target: ZNRF3 ectodomain with C-terminal biotin acceptor peptide (C-BAP) tag, biotinylated in vivo (mouse) (UniProt Q5SSZ7)
Test: SPR; IBIS MX96; biotinylated ZNRF3 immobilised on a G-streptavidin sensor chip at different ligand densities; analytes flowed in 25 mM HEPES pH 8.0, 150 mM NaCl, 25 °C; equilibrium dose-response, global fit to a 1:1 binding model

- pKd: 5.60
Substance: LGR5-RSPO1 complex (LGR5 ectodomain with RSPO1 furin-like domains) (from UniProt O75473 22-907; Q2MKA7 31-146)
